Assay [1] has as its target T1, 5-hydroxytryptamine receptor 4 (Rattus norvegicus, UniProt Q62758). In words: In vitro relaxation of carbachol pre-contracted rat oesophageal TMM. It counts as functional.
Assay [2] concerns the target T1, 5-hydroxytryptamine receptor 4. In words: Binding affinity at 5-hydroxytryptamine 4 receptor in rat striatum by [3H]GR-113808 displacement.

Amino acid sequences for entries named in this document (tags omitted). A change or cut given only in a name is not applied to a line headed by its entry.
UniProt Q62758: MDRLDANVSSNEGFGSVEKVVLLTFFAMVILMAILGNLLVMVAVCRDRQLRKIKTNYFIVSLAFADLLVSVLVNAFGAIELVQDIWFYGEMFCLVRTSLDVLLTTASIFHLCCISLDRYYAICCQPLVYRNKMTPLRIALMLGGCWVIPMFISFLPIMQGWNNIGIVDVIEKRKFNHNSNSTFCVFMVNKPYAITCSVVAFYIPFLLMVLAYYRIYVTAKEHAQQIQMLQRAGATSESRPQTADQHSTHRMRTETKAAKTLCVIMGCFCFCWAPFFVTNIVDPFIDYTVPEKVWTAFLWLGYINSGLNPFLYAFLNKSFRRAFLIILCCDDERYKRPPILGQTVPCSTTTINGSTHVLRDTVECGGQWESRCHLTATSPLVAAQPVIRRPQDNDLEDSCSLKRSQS

As usually defined, the EC50 is the concentration at which the effect is half-maximal. The Ki is the equilibrium dissociation constant of an inhibitor or competing ligand from its target. Read a high Ki as lower affinity. Regarding `Nc1c(Cl)cc(C(=O)O[C@@H]2CN3CCC2CC3)c2c1CCO2`, the EC50 in assay [1] turned out to be 11.1 nM. The Ki in assay [2] was determined as 8.3 nM.
Taken in the same sequence, the figures for `Nc1c(Cl)cc(C(=O)O[C@H]2CN3CCC2CC3)c2c1CCO2` were 385 nM and 93 nM.

The values above are taken from ChEMBL document CHEMBL1128962, “Serotoninergic 5-HT3 and 5-HT4 receptor activities of dihydrobenzofuran carboxylic acid derivatives” (Bioorg Med Chem Lett, 1996).
